Target: Sodium-dependent serotonin transporter (Rattus norvegicus, UniProt P31652)
Format: tissue-based, Brain

Protein sequences, listed by entry. Tags and fused reporters are not part of them.
UniProt P31652, whole entry: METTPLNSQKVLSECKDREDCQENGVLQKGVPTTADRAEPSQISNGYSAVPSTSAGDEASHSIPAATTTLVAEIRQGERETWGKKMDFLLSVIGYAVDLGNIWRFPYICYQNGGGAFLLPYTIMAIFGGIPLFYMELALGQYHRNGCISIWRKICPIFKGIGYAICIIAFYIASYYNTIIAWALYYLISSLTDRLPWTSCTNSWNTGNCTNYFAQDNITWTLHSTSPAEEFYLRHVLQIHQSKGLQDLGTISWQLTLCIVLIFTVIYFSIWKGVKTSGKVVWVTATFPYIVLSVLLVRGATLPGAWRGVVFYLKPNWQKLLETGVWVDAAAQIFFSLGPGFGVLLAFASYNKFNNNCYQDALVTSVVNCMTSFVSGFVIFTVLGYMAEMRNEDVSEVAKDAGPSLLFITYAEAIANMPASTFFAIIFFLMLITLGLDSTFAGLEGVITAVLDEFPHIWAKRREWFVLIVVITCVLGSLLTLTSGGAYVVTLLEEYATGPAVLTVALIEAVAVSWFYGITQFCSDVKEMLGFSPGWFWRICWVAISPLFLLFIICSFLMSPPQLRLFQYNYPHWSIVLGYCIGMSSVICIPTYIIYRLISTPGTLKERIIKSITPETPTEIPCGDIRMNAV

COC(=O)[C@@H]1C2CC[C@@H](C[C@@H]1OC(=O)c1ccccc1)N2C (single isomer, unassigned) [COCAINE]
Ki: 286 nM
